According to patent publication US20210106674A1, “Gene Therapy For Mesothelioma” (The Trustees of the University of Pennsylvania, priority 2019, published 2021):

System: IFN-α2b
Protocol: Enzyme-linked immunosorbent assays (ELISAs) were used to measure IFN-α2b levels (PBL Biomedical Labs; Piscataway, N.J.), as well as serum mesothelin-related protein (SMRP) levels (Fujirebio, Inc., Malvern, Pa.). Neutralizing adenovirus antibody titers (Nabs) were assessed as previously described (5). To detect induced humoral responses against tumor antigens, we performed immunoblotting against purified mesothelin and extracts from allogeneic mesothelioma cell lines using pre- and post-treatment serum as previously described (4-6). See Supplemental Methods for details.

[1] = Day 2 after vector infusion, patients with detectable levels (n=21)

For nadofaragene firadenovec [Ad.IFN], the “patients with detectable levels of serum IFN” value (Day 2 after vector infusion) was 21 n, the “detectable levels of serum IFN” value [1] was 15 to 1608 pg/mL and the “serum IFN, median value” [1] was 470 pg/mL. For the same substance, the “pleural levels of IFNα” value (after initial dosing, compared with serum) was “much higher than seen in the serum”.
